Test system: Ascites hepatoma LY80
Assay: Oxygen partial pressure in tumor tissues of tumor-bearing rats after intra-arterial injection of the sample (phosphorescence quenching, PdPor, OxySpot)
Assay type: in vivo, Donryu rats
Settings: oxygen-saturated sample
Protocol: Animals with cancer were prepared by transplanting tumor cells in desired sites of laboratory animals such as, for example, rats, hamsters, rabbits or beagles. The following is an explanation on transplantation of tumor cells into right femurs of rats.
Rats were bred for several days until tumors develop and then subjected to experiments under anesthesia (e.g., using Nembutal, diethyl ether or halothane anesthetic gas). Rats were intubated through the cervical trachea and ventilated under positive pressure by a respirator. A polyethylene catheter was inserted into a left carotid artery so that a distal end of the catheter is located at a position short of a bifurcation of the common iliac artery, and then backward cannulation was carried out to provide an administration rout of sample in the descending aorta.
The oxygen partial pressure in the tumor tissues may be determined by intravenously injecting a phosphorescent probe (palladium coproporphyrin (PdPor)), irradiating light, and monitoring a phosphorescence quenching time with an oxygen partial pressure monitor. […] The oxygen partial pressure in the tumor site of the right leg was measured at 5 to 30 points in air or an atmosphere containing 99% oxygen with a device for measurement of an oxygen partial pressure (e.g., OxySpot (Trademark) made by Medical System Corp.), and served as controls. […]

Question: How did the “change in the oxygen partial pressure (PO2) in the tumor tissue” value turn out when “human serum albumin: serum albumin, injected oxygen-saturated without porphyrin” was run?
Answer: no change
